PubChem BioAssay (NCI)
Some results for these compounds are left out of this collection, so the calls shown say nothing about other tests.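 Five concentrations, 48 hours, 96-well plates. At the GI50, growth is halved. The concentration for full growth arrest is given as TGI.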

Key:
Assay in all cases: DTP human tumour cell line panel, 48 h
[1] = system: NCI-H226 lung
[2] = system: NCI-H23 lung
[3] = system: NCI-H522 lung
[4] = system: NCI/ADR-RES ovarian
[5] = system: OVCAR-3 ovarian
[6] = system: OVCAR-5 ovarian
[7] = system: OVCAR-8 ovarian
[8] = system: PC-3 prostate
[9] = system: RPMI-8226 leukemia
[10] = system: RXF 393 renal
[11] = system: SF-268 CNS
[12] = system: SF-295 CNS
[13] = system: SF-539 CNS
[14] = system: SK-MEL-28 melanoma
[15] = system: SK-MEL-5 melanoma
[16] = system: SK-OV-3 ovarian
[17] = system: SN12C renal
[18] = system: SNB-19 CNS
[19] = system: SNB-75 CNS
[20] = system: SR leukemia
[21] = system: SW-620 colon
[22] = system: T-47D breast
[23] = system: TK-10 renal
[24] = system: U251 CNS
[25] = system: UACC-257 melanoma
[26] = system: UACC-62 melanoma
[27] = system: UO-31 renal

Work on `C=C(C)C#CC(O)(C(=O)OC1C2CCN(CC2)C1C)c1ccccc1` (stereo not drawn) yielded a TGI [1] of over 100 µM, a GI50 [2] of over 100 µM and a TGI [2] of over 100 µM. The GI50 [3] was over 100 µM, the TGI [3] was over 100 µM and the GI50 [4] was over 100 µM. The TGI [4] was over 100 µM, the GI50 [5] was over 100 µM and the TGI [5] was over 100 µM. It also gave a GI50 [6] of over 100 µM, a TGI [6] of over 100 µM and a GI50 [7] of over 100 µM. The TGI [7] was over 100 µM, the GI50 [8] was over 100 µM and the TGI [8] was over 100 µM. The GI50 [9] was over 100 µM, the TGI [9] was over 100 µM and the GI50 [10] was over 100 µM. The TGI [10] was over 100 µM, the GI50 [11] was over 100 µM and the TGI [11] was over 100 µM. The GI50 [12] was over 100 µM, the TGI [12] was over 100 µM and the GI50 [13] was over 100 µM. The TGI [13] was over 100 µM, the GI50 [14] was over 100 µM and the TGI [14] was over 100 µM. For the same molecule, the GI50 [15] was over 100 µM, the TGI [15] was over 100 µM and the GI50 [16] was over 100 µM. The TGI [16] was over 100 µM, the GI50 [17] was over 100 µM and the TGI [17] was over 100 µM. It also gave a GI50 [18] of over 100 µM, a TGI [18] of over 100 µM and a GI50 [19] of over 100 µM. It also gave a TGI [19] of over 100 µM, a GI50 [20] of over 100 µM and a TGI [20] of over 100 µM. For the same molecule, the GI50 [21] was over 100 µM, the TGI [21] was over 100 µM and the GI50 [22] was over 100 µM. The TGI [22] was over 100 µM, the GI50 [23] was over 100 µM and the TGI [23] was over 100 µM. It also gave a GI50 [24] of over 100 µM, a TGI [24] of over 100 µM and a GI50 [25] of over 100 µM. The TGI [25] was over 100 µM, the GI50 [26] was over 100 µM and the TGI [26] was over 100 µM. The GI50 [27] was over 100 µM and the TGI [27] was over 100 µM.
